Source: PMC7822861, “A functional family of fluorescent nucleotide analogues to investigate actin dynamics and energetics” (Nature Communications, 2021)

Columns and labels:
[1] = target: KU560-labeled S. cerevisiae profilin (Pfy1p) S36C/C89A (S. cerevisiae) (UniProt P07274); assay: fluorescence polarisation; steady-state fluorescence anisotropy of KU560 (excitation 555 nm, emission 650 nm); 0.5 µM KU560-profilin or 2 µM KU560-ADF/cofilin titrated with increasing concentrations of G-actin bound to ATP (control pre-incubated with ATP); G-buffer, room temperature
[2] = target: KU560-labeled S. cerevisiae profilin (Pfy1p) S36C/C89A (S. cerevisiae) (UniProt P07274); assay: fluorescence polarisation; steady-state fluorescence anisotropy of KU560 (excitation 555 nm, emission 650 nm); 0.5 µM KU560-profilin or 2 µM KU560-ADF/cofilin titrated with increasing concentrations of G-actin pre-incubated 150 min with a 5-fold excess of ATP-ATTO-488 (88% occupancy); G-buffer, room temperature

Kd [1]: 2.1 µM | Kd [2]: 2.6 µM
Substance: Rabbit muscle actin (from UniProt P68135 1-377) (natural protein)
